{"sequences": {"note": "The chains behind the UniProt entries cited, without tags or fusion partners.", "UniProt P06493, whole entry, species assumed": "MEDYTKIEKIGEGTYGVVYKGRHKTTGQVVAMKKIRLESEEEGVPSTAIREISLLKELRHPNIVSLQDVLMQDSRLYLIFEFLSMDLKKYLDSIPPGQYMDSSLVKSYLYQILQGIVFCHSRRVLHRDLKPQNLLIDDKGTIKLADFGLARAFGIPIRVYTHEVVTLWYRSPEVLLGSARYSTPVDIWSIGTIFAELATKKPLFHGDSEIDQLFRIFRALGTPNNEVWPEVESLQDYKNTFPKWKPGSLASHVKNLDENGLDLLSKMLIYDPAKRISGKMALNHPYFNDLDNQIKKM", "UniProt P11802, whole entry, species assumed": "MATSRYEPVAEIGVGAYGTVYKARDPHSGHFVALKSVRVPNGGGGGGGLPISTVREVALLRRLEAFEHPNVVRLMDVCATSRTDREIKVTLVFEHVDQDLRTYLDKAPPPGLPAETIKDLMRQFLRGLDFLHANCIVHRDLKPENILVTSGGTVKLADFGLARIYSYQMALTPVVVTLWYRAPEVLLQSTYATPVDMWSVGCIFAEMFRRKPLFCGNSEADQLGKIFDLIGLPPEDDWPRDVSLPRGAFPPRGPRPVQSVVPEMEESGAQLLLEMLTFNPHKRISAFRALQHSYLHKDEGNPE"}, "source": "patent US20230312752A1", "about": "(Brown University, priority 2021, published 2023)", "origin": "cited, not measured here", "key": {"CDK1": {"biological_target": "CDK1 (Homo sapiens, UniProt P06493)", "set-up": "key to the marks not given beside the values", "details": "cited from earlier work"}, "CDK4": {"biological_target": "CDK4 (Homo sapiens, UniProt P11802)", "set-up": "key to the marks not given beside the values", "details": "cited from earlier work"}}}
{"compound": "COc1ccc2c(c1)/C(=C/c1cnc[nH]1)C(=O)N2", "values": [{"measurement": "Inhibitory potency CDK1", "setting": "CDK1", "result": "+++"}, {"measurement": "Inhibitory potency CDK4", "setting": "CDK4", "result": "++"}]}
